The target in assay [1] is hD3 (Homo sapiens). Nature of the assay: Affinity and intrinsic activity, Table 4. The class given is binding. Particulars: high affinity agonist state, [3H]-agonist ligand.
The target in assay [2] is hO3 Receptor (Homo sapiens). Nature of the assay: biochemical. Particulars: Ki (nM) ± S.D.

Drawing on US20010056101A1 (priority 1998, published 2001), this text covers Ki for two compounds.

Usually Ki stands for a measure of affinity in units of concentration, obtained from inhibition or displacement. Lower therefore signals higher affinity. In the case of `CCCN1CCCC(c2cccc(O)c2)C1` (single isomer, unassigned; (-)) [(−)-3-PPP, (−)3-(3-hydroxyphenyl)-N-n-propylpiperidine], the Ki in assay [1] was determined as 30.9 nM; in assay [2], 30.9 ± 13.4 nM.
In the case of `CCCN1CCCC(c2cccc(O)c2)C1` (single isomer, unassigned; (+)) [(+)-3-PPP], the Ki in assay [2] was 66.4 ± 12.5 nM.
